From patent US20080274913A1, “Multiplex Array Useful for Assaying Protein-Protein Interaction” (priority 2005, published 2008)
Values belong to the molecule of their own block, whether it stands above or below them.

By UniProt entry, the sequences of proteins in these tests, tags left out.
UniProt P08908, whole entry: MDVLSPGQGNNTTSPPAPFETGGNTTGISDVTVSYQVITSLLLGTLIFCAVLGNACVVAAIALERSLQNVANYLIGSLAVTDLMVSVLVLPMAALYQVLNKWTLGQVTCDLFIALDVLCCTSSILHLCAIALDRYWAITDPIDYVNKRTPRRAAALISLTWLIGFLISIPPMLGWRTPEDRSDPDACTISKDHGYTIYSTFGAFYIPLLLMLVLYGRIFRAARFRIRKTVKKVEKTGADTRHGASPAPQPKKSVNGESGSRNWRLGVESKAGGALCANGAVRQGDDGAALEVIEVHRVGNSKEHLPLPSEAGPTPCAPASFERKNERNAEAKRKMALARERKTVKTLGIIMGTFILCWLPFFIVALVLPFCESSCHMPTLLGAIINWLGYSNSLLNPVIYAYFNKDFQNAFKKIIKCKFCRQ
UniProt P08172, whole entry: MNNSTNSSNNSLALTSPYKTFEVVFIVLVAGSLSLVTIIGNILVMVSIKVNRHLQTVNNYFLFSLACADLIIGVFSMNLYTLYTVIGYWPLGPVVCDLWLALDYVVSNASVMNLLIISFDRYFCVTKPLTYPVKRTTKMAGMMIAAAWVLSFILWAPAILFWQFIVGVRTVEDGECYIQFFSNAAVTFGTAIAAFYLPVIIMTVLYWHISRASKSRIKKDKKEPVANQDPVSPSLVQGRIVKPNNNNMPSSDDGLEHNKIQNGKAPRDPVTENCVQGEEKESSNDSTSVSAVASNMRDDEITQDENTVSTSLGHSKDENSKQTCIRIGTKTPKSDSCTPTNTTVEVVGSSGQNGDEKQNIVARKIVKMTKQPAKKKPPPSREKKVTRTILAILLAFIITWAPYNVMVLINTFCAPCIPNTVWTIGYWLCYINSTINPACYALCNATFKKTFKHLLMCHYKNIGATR

Experiments:
Format in all cases: cell-based
[1] = biological target: epidermal growth factor receptor (EGFR) (Homo sapiens, UniProt P00533); assay: EGFR-tTA / PLC Gamma1-TEV luciferase reporter assay in HTL5B8.1 cells; conditions: 70 μM AG-494; 0.3 μM AG-1478; 2 mM RG-130022
[2] = biological target: serotonin receptor 1a (HTR1A) (Homo sapiens, UniProt P08908); conditions: 10 μM; low efficiency cleavage site
[3] = biological target: T1, m2 muscarinic acetylcholine receptor (CHRM2) (Homo sapiens, UniProt P08172); conditions: 10 μM; high efficiency cleavage site; ARRB2-protease under HSV-TK promoter
T1 construct: expressed in transfected cells; host or cells: clone 41 (HEK-293T derivative)

[4] = biological target: T2, human Type I Interferon Receptor (Homo sapiens, UniProt P17181+P48551); assay: IFNAR1-tTA / IFNAR2.2-TEV luciferase reporter assay in HTL5B8.1 cells; conditions: 5000 U/ml, 18-20 hours
T2 sequence (P17181 28-557): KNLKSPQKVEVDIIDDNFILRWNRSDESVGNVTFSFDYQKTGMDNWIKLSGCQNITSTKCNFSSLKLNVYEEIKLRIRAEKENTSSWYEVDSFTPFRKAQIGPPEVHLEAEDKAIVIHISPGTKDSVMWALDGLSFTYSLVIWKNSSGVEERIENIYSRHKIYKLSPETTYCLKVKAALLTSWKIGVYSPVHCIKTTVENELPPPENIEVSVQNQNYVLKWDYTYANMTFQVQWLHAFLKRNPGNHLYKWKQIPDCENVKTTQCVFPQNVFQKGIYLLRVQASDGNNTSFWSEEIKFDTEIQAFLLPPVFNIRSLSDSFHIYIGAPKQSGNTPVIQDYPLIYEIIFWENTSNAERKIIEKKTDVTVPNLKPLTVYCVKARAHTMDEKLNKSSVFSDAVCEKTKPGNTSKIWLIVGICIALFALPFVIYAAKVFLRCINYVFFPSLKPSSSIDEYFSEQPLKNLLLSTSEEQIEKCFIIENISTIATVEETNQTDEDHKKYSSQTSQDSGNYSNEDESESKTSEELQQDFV
T2 sequence (P48551 27-515): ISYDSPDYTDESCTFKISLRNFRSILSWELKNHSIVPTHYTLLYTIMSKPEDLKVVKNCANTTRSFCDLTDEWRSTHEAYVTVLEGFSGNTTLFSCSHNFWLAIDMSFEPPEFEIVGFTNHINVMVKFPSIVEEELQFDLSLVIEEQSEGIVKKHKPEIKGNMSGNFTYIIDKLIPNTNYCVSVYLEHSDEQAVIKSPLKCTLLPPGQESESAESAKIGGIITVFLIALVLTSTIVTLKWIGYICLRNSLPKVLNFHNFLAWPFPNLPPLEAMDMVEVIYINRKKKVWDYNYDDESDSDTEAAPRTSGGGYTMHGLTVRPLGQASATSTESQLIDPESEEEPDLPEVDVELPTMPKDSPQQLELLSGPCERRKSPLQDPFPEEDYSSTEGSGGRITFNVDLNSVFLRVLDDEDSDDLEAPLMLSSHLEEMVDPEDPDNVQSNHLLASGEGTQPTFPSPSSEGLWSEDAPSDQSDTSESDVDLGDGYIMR

Molecule: COc1cc2ncnc(Nc3cccc(Cl)c3)c2cc1OC [AG-1478]
induction of reporter gene activity by human Epidermal Growth Factor after prior treatment with tyrosine kinase inhibitor [1]: blocked the induction of reporter gene activity

Molecule: Br.CCCN(CCC)C1CCc2cccc(O)c2C1 (stereo not shown) [OH-DPAT, 8-hydroxy-DPAT HBr]
maximal response, induction of reporter gene expression over background level [2]: 6.3 fold

Molecule: C[N+](C)(C)CCOC(N)=O.[Cl-] [carbochol, carbamylcholine Cl]
maximal response, induction of reporter gene expression over background [3]: 7.2 fold

increase in reporter gene activity [4]: 10 fold
Molecule: IFN-β: human interferon-beta
